Measurements taken from PMC5183561.

Molecular target: human recombinant kappa opioid receptor (human), P41145
Assay: radioligand binding

B1: dynorphin A (peptide)
chain: YGGFLRRIRPKLKWDNQ
modifications: not checked
  pKi: 10.3
